Biological target: GST–BIR3 fusion protein (XIAP BIR3 domain)
Assay: FMAT bead-based fluorescence competition assay

- IC50: 750 nM
Binder: AVAF (C-terminal primary amide) [Reaper 4-mer peptide AVAF (compound 6)]
